# Publication PMC9321663, “The DevTox Germ Layer Reporter Platform: An Assay Adaptation of the Human Pluripotent Stem Cell Test” (Toxics, 2022)
# Experiments:
# [1] = Table S2; cited from earlier work
# [2] = system: SOX17 (endoderm marker) in RUES2-GLR cells; assay: DevTox GLR-Endo assay: decrease in percent SOX17-positive cells (AEID 3094, Sox17_dn)
SMILES,Development Toxicant Classification [1],"Hit Call ([2]; Table S2, SOX17-positive cells, cutoff 3*bmad)","HIT−CALL ([2]; tcpl plot AEID3094, COFF 20.3)"
C=CC(N)=O [Acrylamide],Negative,–,–
COc1cc2ncnc(Nc3ccc(F)c(Cl)c3)c2cc1OCCCN1CCOCC1 [Gefitinib],–,Positive,1
